The experiment has as its target Mu-type opioid receptor (Rattus norvegicus, UniProt P33535).

The chains behind the UniProt entries cited, without tags or fusion partners.
UniProt P33535, whole entry: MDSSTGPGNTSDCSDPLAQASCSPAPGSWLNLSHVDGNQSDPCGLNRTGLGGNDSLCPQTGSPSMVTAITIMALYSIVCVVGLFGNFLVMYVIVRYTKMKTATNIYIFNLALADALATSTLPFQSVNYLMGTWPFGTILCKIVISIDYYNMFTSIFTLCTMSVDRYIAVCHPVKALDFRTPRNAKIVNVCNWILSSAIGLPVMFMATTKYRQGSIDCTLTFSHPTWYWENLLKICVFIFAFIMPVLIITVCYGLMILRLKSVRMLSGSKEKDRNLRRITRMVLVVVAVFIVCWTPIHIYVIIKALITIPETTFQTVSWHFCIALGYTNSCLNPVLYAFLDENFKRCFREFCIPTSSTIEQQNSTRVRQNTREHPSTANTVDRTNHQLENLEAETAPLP

SMILES strings stand for the structures.

As to `C[C@@H](NC(=O)[C@@H](N)Cc1ccc(O)cc1)C(=O)NCC(=O)N(C)[C@@H](Cc1ccccc1)C(=O)NCCO` [[tyrosyl-3,5-3H(N)]-D-Ala2-Mephe4-glyol5-enkephalin], the affinity, expressed as Ki, was 1.1 nM.

Source of the values: BindingDB's records for doi:10.1016/s0014-2999(99)00610-x (Hungarian Academy of Sciences, 1999).
